## Measured affinities in a library of Ab-14 heavy chain variants

The target is the same throughout: PDVDLGDISGINAS, from the HR2 region of SARS-CoV-2 spike.

Each scFv is VH, a (GGGGS)3 linker, VL, as in the parent Ab-14, and differs from it in the CDRs of the heavy chain only.
VH: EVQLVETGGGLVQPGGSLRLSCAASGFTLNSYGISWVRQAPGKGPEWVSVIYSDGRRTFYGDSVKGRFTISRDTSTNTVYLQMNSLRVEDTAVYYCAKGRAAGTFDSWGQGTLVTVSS
VL: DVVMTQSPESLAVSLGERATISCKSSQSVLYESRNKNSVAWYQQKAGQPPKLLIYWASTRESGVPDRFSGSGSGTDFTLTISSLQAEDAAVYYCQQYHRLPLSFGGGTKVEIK

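The starting antibody came from a phage panning campaign against this peptide. Designed CDR sequences, proposed from the first random library and measured here. Their group label is 14H_En_HC (En: ensemble of fine-tuned language models; HC: hill climbing; a sequence that several methods proposed may carry one label only). AlphaSeq pools MATa yeast showing the antibodies with MATalpha yeast showing the peptide. Mating (16 h, 30 °C) was followed by selection of diploids and sequencing of their barcodes. Read counts were normalised to the haploid input and turned into Kd by a linear fit to BCL2-family pairs of known affinity, for each replicate. There are six technical replicates.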

Each variant is given by its three heavy chain CDRs, as the data file delimits them; those of the parent are GFTLNSYGIS, VIYSDGRRTFYGDSVK, GRAAGTFDS. The read-out is the apparent dissociation constant on a log10 scale (nM): the lower, the stronger. An entry "nd" has no value in the source: the pair was not observed among the diploids in that replicate. This suggests poor binding but is not conclusive. As a blank, each scFv also met three strains without target: over all heavy chain designs, 1% of these pairings were detected, typically at 2.08 and seldom below 0.84. Also given: how often the same scFv was detected with the empty control strains, with their mean in brackets. The authors averaged sequences with at least three values out of six and counted those with two or fewer as poor binders. Of ten entries with the parent sequence, four were seen in most replicates (averages 0.34 to 2.37), three in one and three in none, so single entries are noisy. The range of this assay differs from that of the first round, and the authors advise against merging the two.

{"CDR-H1": "GFDLNEYGIS", "CDR-H2": "VIYADGRRTAYTDSVK", "CDR-H3": "GEIAGTFDV", "replicates, log10 nM": "-0.22 -0.35 -0.41 -0.56 -0.78 -0.20", "signal with controls": "0/18"}
{"CDR-H1": "GFTLDEYGIS", "CDR-H2": "VIYADGRRTFYSDSVK", "CDR-H3": "GETAGTFDV", "replicates, log10 nM": "-0.40 -0.44 -0.57 -0.69 -0.49 -0.32", "signal with controls": "0/18"}
{"CDR-H1": "GFDLDEYGIS", "CDR-H2": "VIYADGRRTFYIDSVK", "CDR-H3": "GEAAGTFVM", "replicates, log10 nM": "0.39 0.18 nd 0.61 nd nd", "signal with controls": "0/18"}
{"CDR-H1": "GFDLNEYGIS", "CDR-H2": "VIYADGRRTFYADSVK", "CDR-H3": "GNAAGTFIQ", "replicates, log10 nM": "0.88 1.04 0.70 0.34 1.31 0.66", "signal with controls": "0/18"}
{"CDR-H1": "GFDLNEYGIS", "CDR-H2": "VIYADGRRTAYTDSVK", "CDR-H3": "GNAAGTFLV", "replicates, log10 nM": "0.33 0.72 -0.36 0.09 0.13 0.00", "signal with controls": "0/18"}
{"CDR-H1": "GFDLEEYGIS", "CDR-H2": "VIYADGRRTFYTDSVK", "CDR-H3": "GEVAGTFDV", "replicates, log10 nM": "-0.41 -0.43 -0.45 -0.71 -0.59 -0.68", "signal with controls": "0/18"}
{"CDR-H1": "GFDLNEYGIS", "CDR-H2": "VIYADGMRTAYIDSVK", "CDR-H3": "GHNAGTFDV", "replicates, log10 nM": "-0.29 -0.48 -0.78 -0.75 -1.08 -0.76", "signal with controls": "1/18 (1.38)"}
{"CDR-H1": "GFDLEDYGIS", "CDR-H2": "VIYADGKRTQYADSVK", "CDR-H3": "GEAAGTFDL", "replicates, log10 nM": "0.68 0.92 1.46 1.59 0.47 1.56", "signal with controls": "0/18"}
{"CDR-H1": "GFDLNEYGIS", "CDR-H2": "VIYADGRRTFYTDSVK", "CDR-H3": "GNNAGTFDM", "replicates, log10 nM": "-0.21 -0.70 -0.97 -0.90 -0.68 -0.74", "signal with controls": "0/18"}
{"CDR-H1": "GFDLNEYGIS", "CDR-H2": "VIYADGKRTFYSDSVK", "CDR-H3": "GTVAGTFDV", "replicates, log10 nM": "-0.47 -0.54 -0.43 -0.63 -0.66 -0.41", "signal with controls": "0/18"}
{"CDR-H1": "GFDLNEYGIS", "CDR-H2": "VIYADGVRTFYIDSVK", "CDR-H3": "GTNAGTFDS", "replicates, log10 nM": "-0.65 -0.76 -0.60 -0.69 -0.88 -0.33", "signal with controls": "0/18"}
{"CDR-H1": "GFNLEDYGIS", "CDR-H2": "VIYADGRRTFYTDSVK", "CDR-H3": "GKVAGTFDV", "replicates, log10 nM": "-0.21 -0.16 -0.24 0.15 -0.41 -0.14", "signal with controls": "0/18"}
{"CDR-H1": "GFDLNEYGIS", "CDR-H2": "VIYADGVRTFYSDSVK", "CDR-H3": "GEAGGTFDA", "replicates, log10 nM": "1.92 nd 1.80 2.17 1.66 1.50", "signal with controls": "0/18"}
{"CDR-H1": "GFSLDEYGIS", "CDR-H2": "VIYADGRRTFYTDSVK", "CDR-H3": "GGNAGTFDV", "replicates, log10 nM": "-0.83 -0.77 -0.75 -0.88 -0.99 -0.50", "signal with controls": "0/18"}
{"CDR-H1": "GFDLNEYGIS", "CDR-H2": "VIYADGRRTQYIDSVK", "CDR-H3": "GTVAGTFDS", "replicates, log10 nM": "-0.77 -0.44 -1.41 -1.02 -1.07 -0.93", "signal with controls": "0/18"}
{"CDR-H1": "GFDLNEYGIS", "CDR-H2": "VIYADGRRTFYKDSVK", "CDR-H3": "GENGGTFDV", "replicates, log10 nM": "0.03 -0.22 -0.07 -0.47 -0.34 -0.14", "signal with controls": "0/18"}
{"CDR-H1": "GFDLNEYGIS", "CDR-H2": "VIYADGKRTAYSDSVK", "CDR-H3": "GEAGGTFDS", "replicates, log10 nM": "-0.18 0.04 0.07 -0.02 -0.63 -0.31", "signal with controls": "0/18"}
{"CDR-H1": "GFNLNEYGIS", "CDR-H2": "VIYADGRRTFYTDSVK", "CDR-H3": "GEFAGTFDL", "replicates, log10 nM": "-0.07 0.18 0.06 -0.29 -0.14 0.09", "signal with controls": "0/18"}

Excerpt, the first 2 entries:

CDR-H1,CDR-H2,CDR-H3,"replicates, log10 nM",signal with controls
GFDLNEYGIS,VIYADGRRTAYTDSVK,GEIAGTFDV,-0.22 -0.35 -0.41 -0.56 -0.78 -0.20,0/18
GFTLDEYGIS,VIYADGRRTFYSDSVK,GETAGTFDV,-0.40 -0.44 -0.57 -0.69 -0.49 -0.32,0/18

Reference: Li et al. 2023, doi:10.1038/s41467-023-39022-2. File: FLAb, binding data.